Assay results reported in publication PMC6034706 (ChemMedChem, 2017).

Assays:
VIM2 = VIM2 (Escherichia coli, UniProt Q5U7L7); type: biochemical, P. aeruginosa
E. coli = assay: Cell viability assay, bacterial growth; type: cell-based; conditions: relative to untreated cells
VIM2 expressing E. coli = type: cell-based; conditions: relative to untreated cells

SMILES | fold difference in Ki relative to compound 3 (VIM2) | LE (ligand efficiency) (VIM2; LE = -1.38 log (Ki) / N, N = number of heavy atoms) | relative percentage growth, E. coli, Amox (−) (E. coli; compound alone) | relative percentage growth, E. coli, Amox (+) (E. coli; with 50 μM amoxicillin) | relative percentage growth, VIM2 expressing E. coli, Amox (−) (VIM2 expressing E. coli; compound alone) | relative percentage growth, VIM2 expressing E. coli, Amox (+) (VIM2 expressing E. coli; with 50 μM amoxicillin)
On1ccccc1=S [Compound 2, 1-Hydroxypyridine-2-thione] | 20 fold |  |  |  |  | 
[Na+].[O-]n1ccccc1=S [Compound 2b] | 20 fold | 1.15 | 5.3% | 1.9% | 11% | 2.1%
